Source: PubChem BioAssay AID488840 (Broad Institute, 2010)
Only a part is listed here, and it is no random draw. Entries with a potency or affinity are not part of this list. Active and inactive are the calls of the source.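 The calls were made as follows: active = half-maximal dose of signal decrease from fit no higher than ten times the top valid tested dose; inconclusive = fit invalid, or curve flat with 30 to 70% inhibition; inactive = the rest.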

Chains of the proteins cited; added tags and fusions are not shown. Lines headed by an entry give the natural chain unless they say otherwise; changes in a name come on top.
UniProt O75164: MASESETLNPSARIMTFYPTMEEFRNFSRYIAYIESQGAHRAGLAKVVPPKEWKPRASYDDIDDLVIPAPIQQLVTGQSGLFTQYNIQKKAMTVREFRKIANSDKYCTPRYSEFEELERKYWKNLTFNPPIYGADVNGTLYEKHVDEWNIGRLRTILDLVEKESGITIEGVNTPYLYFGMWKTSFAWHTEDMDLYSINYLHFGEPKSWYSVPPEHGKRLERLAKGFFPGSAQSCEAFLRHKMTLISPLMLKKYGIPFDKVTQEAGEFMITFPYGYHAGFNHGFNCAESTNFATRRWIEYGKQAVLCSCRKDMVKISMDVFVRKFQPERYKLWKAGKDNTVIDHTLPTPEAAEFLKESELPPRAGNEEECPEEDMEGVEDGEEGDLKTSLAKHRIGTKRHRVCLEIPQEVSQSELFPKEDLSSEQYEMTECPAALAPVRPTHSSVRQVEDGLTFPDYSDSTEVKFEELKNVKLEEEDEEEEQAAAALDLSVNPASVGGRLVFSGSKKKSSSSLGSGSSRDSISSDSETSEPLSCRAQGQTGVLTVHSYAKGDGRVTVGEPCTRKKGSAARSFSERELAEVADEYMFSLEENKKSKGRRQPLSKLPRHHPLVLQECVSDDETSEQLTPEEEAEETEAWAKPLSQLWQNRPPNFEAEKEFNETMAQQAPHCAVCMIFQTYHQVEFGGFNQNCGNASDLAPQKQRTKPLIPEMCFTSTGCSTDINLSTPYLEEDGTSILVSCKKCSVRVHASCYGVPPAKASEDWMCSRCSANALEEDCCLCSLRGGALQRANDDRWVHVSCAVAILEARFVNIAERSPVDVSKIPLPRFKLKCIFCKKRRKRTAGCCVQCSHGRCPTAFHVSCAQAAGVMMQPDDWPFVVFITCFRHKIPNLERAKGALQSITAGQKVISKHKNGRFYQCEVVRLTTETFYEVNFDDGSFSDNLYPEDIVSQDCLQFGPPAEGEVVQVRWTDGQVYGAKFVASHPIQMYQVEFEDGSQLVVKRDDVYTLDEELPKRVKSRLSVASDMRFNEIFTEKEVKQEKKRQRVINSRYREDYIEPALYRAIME

Each compound was assayed against Lysine-specific demethylase 4A (Homo sapiens) (UniProt O75164) (assay: inhibition of JMJD2A H3K9me3 demethylation – biochemical, DELFIA europium, cherry-picked samples, selectivity assay for GASC-1 inhibitor project, dose response (AID 488840;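 also: europium signal reports the dimethyl H3K9 product detected by antibody so inhibitors lower it; 0% = median of neutral control wells and -100% = median of positive control wells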)). Conditions: GST-JMJD2A(1-420) H3K9me3 demethylation; at 6 µM (top of the series).

SMILES | activity change, negative = inhibition
Cc1ccc(OCC(=O)OC2CN3CCC2CC3)cc1 (stereo unspecified) | inactive: -0.0755%
